From paper PMC1334386 (PLoS Biology, 2006)
“Also recorded” adds a separate entry of the source.

Test system: HAUSP TRAF-like domain (residues 1–206)
Test: in vitro competition assay using gel filtration chromatography, MDM2 versus p53
Assay type: binding
Details: 10-fold molar equivalence of p53 (351–382) preincubated with HAUSP 5 min at 4 °C, then one molar equivalence of MDM2 (208–289) 45 min at 4 °C, SDS-PAGE/Coomassie
Experimental: To test this hypothesis, we performed an in vitro competition assay using gel filtration chromatography.
Size-exclusion chromatography (gel filtration), using a Superdex-200 column (10/30, Amersham Pharmacia Biotech, Piscataway, New Jersey, United States), was employed to carry out all the in vitro binding assays. Proteins subjected to binding tests were incubated at 4 °C for at least 45 min to allow equilibrium to be reached. The flow rate was 0.5 ml/min, and the buffer contained 25 mM Tris (pH 8.0), 100 mM NaCl, and 2 mM DTT. All fractions were collected at 0.5 ml each. Aliquots of relevant fractions were mixed with SDS sample buffer and subjected to SDS-polyacrylamide gel electrophoresis. The proteins were visualized by Coomassie Blue staining. The column was calibrated with molecular-mass standards.

## MDM2: RING-finger E3 ubiquitin ligase; here MDM2 fragments in competition with p53
  complex formation with HAUSP in competition: preferentially forms a stable HAUSP–MDM2 complex even in the presence of excess p53; also recorded: out-competed excess p53; also recorded: efficiently out-competes excess p53
